Reference: PubChem BioAssay AID651602 (The Scripps Research Institute Molecular Screening Center, 2012)
The list shows a part of the results, in another mix than the full data. Calls of active or inactive are those of the source. Rule as the data show it: active = inhibition above about 11%; inactive = the rest.

assay: reduced absorbance of E. coli cultures with phage – HTS, RecBCD inhibitor project, primary screen (AID 651602); details: growth absorbance, at 11.9 µM, active compounds read high

Row | Structure (SMILES) | inhibition
1 | CCC(=O)N(c1ccccc1)C1(COC)CCN(CCc2cccs2)CC1 | inactive: -0.38%
2 | CCC(=O)N(c1ccccc1)C1(COC)CCN(CCn2nnn(CC)c2=O)CC1 | inactive: 1.45%
